Experimental data published in patent US8075916B2, “Poly(organophosphazene) hydrogels for drug delivery, preparation method thereof and use thereof” (Korea Institute of Science and Technology, priority 2007, dated 2011).

details: pH 7.4

Substance	Max. gelling temp. [°C]
poly[(glycine ethyl ester)(aminomethoxy polyethylene glycol 550)(glycinephenylalanineleucine)phosphazene] [Example 10]	33
poly[(glycine ethyl ester)(aminomethoxy polyethyleneglycol 550)(glycinephenylalanineleucineglycine)phosphazene] [Example 11]	42
poly[(isoleucine ethyl ester)(aminomethoxy polyethylene glycol 350)(glycine)phosphazene] [Example 5]	37
poly[(isoleucine ethyl ester)(aminomethoxy polyethylene glycol 550)(aminoethylsuccinate)(aminoethylsuccinate PEI)phosphazene] [Example 19]	36
poly[(isoleucine ethyl ester)(aminomethoxy polyethylene glycol 550)(aminoethylsuccinate)(aminoethylsuccinate ethylene heparin)phosphazene] [Example 21]	39
poly[(isoleucine ethyl ester)(aminomethoxy polyethylene glycol 550)(aminoethylsuccinate)(aminoethylsuccinate protamine)phosphazene] [Example 20]	38
poly[(isoleucine ethyl ester)(aminomethoxy polyethylene glycol 550)(glycylglycine)(glycyl glycyl polyethylenimine)phosphazene] [Example 13]	39
poly[(isoleucine ethyl ester)(aminomethoxy polyethylene glycol 550)(glycylglycine)(glycyl glycyl protamine)phosphazene] [Example 14]	46
poly[(isoleucine ethyl ester)(aminomethoxy polyethylene glycol 550)(glycylglycine)(glycylglycyl ethylene heparin)phosphazene] [Example 16]	38
poly[(isoleucine ethyl ester)(aminomethoxy polyethylene glycol 550)(glycylglycine)(glycylglycyl ethylene hyaluronic acid)phosphazene] [Example 17]	40

Second part, the substance after the results:

Max. gelling temp. [°C]	Substance
50	poly[(isoleucine ethyl ester)(aminomethoxy polyethylene glycol 550)(glycylglycine)(glycylglycyl protamine)phosphazene] [Example 15]
27	poly[(isoleucine ethyl ester)(aminomethoxy polyethylene glycol 550)(glycylglycine)phosphazene] [Example 7]
51	poly[(isoleucine ethyl ester)(ethyl-2-(O-glycyl)lactate)(aminomethoxy polyethyleneglycol 750)(glycylglycine)phosphazene] [Example 12]
42	poly[(phenylalanine ethyl ester)(ethyl-2-(O-glycyl)lactate)(aminomethoxy polyethyleneglycol 550)] [Example 3]
